Only a part is listed here, and it is no random draw. Active and inactive are the calls of the source. Cut-off read from the data, not from the text of the source: active = potentiation above about 50%; inconclusive = mostly about 30% to 49%; inactive = weaker than that.
Molecular target: D(2) dopamine receptor (Homo sapiens) (UniProt P14416)
Experiment: Beta-Arrestin HTS for Positive Allosteric Modulators of the Human D2 Dopamine Receptor: Potentiators
Details: DiscoveRx D2 beta-arrestin cells, luminescence, 90 min; hits give high values; 100% = 57 uM dopamine signal
Method in brief: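 PathHunter D2 cells, attached overnight at 37 deg C, received compound in DMSO plus dopamine at EC20 (50 nM final) for 90 min at 37 deg C. Beta-arrestin recruitment was read as luminescence after 1 h with detection reagent at ambient temperature.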

Sequences of proteins named here, by UniProt entry; tags and fusion partners are left off.
UniProt P14416, whole entry: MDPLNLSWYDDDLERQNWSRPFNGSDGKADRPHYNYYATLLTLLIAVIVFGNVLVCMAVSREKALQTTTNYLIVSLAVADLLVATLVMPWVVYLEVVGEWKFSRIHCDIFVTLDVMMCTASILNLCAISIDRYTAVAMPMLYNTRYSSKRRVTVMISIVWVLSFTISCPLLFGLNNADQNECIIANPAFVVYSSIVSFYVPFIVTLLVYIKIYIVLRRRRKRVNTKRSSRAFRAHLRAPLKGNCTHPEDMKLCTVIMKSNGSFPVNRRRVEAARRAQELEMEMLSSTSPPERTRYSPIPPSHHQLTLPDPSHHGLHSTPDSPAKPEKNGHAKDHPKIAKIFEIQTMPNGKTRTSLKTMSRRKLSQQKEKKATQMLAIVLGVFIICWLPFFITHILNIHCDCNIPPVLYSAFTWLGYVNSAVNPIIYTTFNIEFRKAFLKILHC

Row | SMILES | potentiation
1 | Cc1nn(-c2ccccc2)c2c1P(=O)(N1CCOCC1)N(C)C(c1ccccc1)=N2 (stereo unspecified) | inactive: 7.69%
2 | Cc1ccc(C(=O)OC2CN3CCC2CC3)cc1 (stereo unspecified) | inactive: 12.8%
3 | CC1CCC(C(C)C)C(OP(=O)(Nc2ccccn2)c2ccccc2)C1 (stereo unspecified) | inactive: -13.3%
4 | COc1cc(C2NCCC3(OCCO3)C2(C)C)cc(OC)c1OC.O=[N+]([O-])c1cc([N+](=O)[O-])c(O)c([N+](=O)[O-])c1 (stereo unspecified) | inactive: -20.9%
5 | CC1=C2N=C(C=C3N=C(C(C)=C4[N-][C@@](C)([C@@H]5N=C1[C@](C)(CCC(=O)NC[C@@H](C)OP(=O)([O-])O[C@H]1[C@@H](O)[C@@H](n6cnc7cc(C)c(C)cc76)O[C@@H]1CO)[C@H]5CC(N)=O)[C@@](C)(CC(N)=O)[C@@H]4CCC(N)=O)[C@@](C)(CC(N)=O)[C@@H]3CCC(N)=O)C(C)(C)[C@@H]2CCC(N)=O.[C-]#N.[Co+3] | inactive: -9.78%
6 | CN(C)C1(CNC(=O)c2ccc(S(C)(=O)=O)cc2)CCCCC1 | inactive: -5.51%
7 | O=[N+]([O-])c1cc([N+](=O)[O-])c(Nc2nnnn2CCO)c([N+](=O)[O-])c1 | inactive: -26.3%
8 | O=C(/C=C/c1ccccc1)OC1CN2CCC1CC2 (stereo unspecified) | inactive: 1.09%
9 | CCCC1OP(=O)(Nc2ccccc2)OCC1CC (stereo unspecified) | inactive: 0.0372%
10 | CN1CCCCC1COC(=O)C1(O)c2ccccc2CCc2ccccc21 (stereo unspecified) | inactive: -19.1%
11 | COc1ccccc1OP(C)(=O)Nc1c(C)cccc1C (stereo unspecified) | inactive: -2.41%
12 | O=P1(Nc2ncccn2)COc2ccccc2OC1 | inactive: -3.95%
13 | CCCOc1ccc(NP(C)(=O)Oc2ccc(Cl)cc2)cc1 (stereo unspecified) | inactive: -16.6%
14 | Nc1cccc([As](=O)(O)c2ccccc2)c1 | inactive: -9.29%
15 | CP(=O)(Nc1ccc(SC(F)(F)F)cc1)Oc1ccccc1 (stereo unspecified) | inactive: -5.02%
16 | O=[As](O)(c1cccs1)c1cccs1 | inactive: 0.97%
17 | Cc1ccc(OCC(=O)OC2CN3CCC2CC3)cc1 (stereo unspecified) | inactive: -23.5%
18 | NS(=O)(=O)c1cccc(NC(=O)COC(=O)C(O)(c2ccccc2)c2ccccc2)c1 | inactive: -6.51%
19 | O=P1(Nc2ccc(Br)cn2)COc2ccccc2OC1 | inactive: 6.21%
20 | CCC1=CC2Cc3nc4ccc(Cl)cc4c(N)c3C(C1)C2 (stereo unspecified) | inactive: -9.02%
21 | O=P1(Nc2ccccn2)COc2ccccc2OC1 | inactive: -4.13%
22 | O=C(O)C(O)c1ccc(N(CCCl)CCCl)cc1.c1ccncc1 (stereo unspecified) | inactive: -7.82%

Row | SMILES | potentiation
23 | O=[N+]([O-])c1cc([N+](=O)[O-])c(-n2nnc3ccccc32)c([N+](=O)[O-])c1 | inactive: -14.7%
24 | Nc1ccc(CCCCOc2ccccc2)cc1.O=[N+]([O-])c1cc([N+](=O)[O-])c(O)c([N+](=O)[O-])c1 | inactive: -19.5%
25 | CCOP(=O)(NC(=NC(C)c1ccccc1)NC(C)c1ccccc1)OCC (stereo unspecified) | inactive: -9.85%
26 | CCOP(=O)(Nc1ccc(C)cn1)OCC | inactive: -0.718%
27 | CN(CCCl)Cc1cc(Cl)c(NC2=NCCN2)c(Cl)c1 | inactive: -11.7%
28 | Clc1n[nH]nc1-c1nn[nH][15n]1 | inactive: -6.93%
29 | O=P1(N(CCCl)CCCl)NCCC(C(F)(F)F)O1 (stereo unspecified) | inactive: -5.31%
30 | CN(Cc1cccnc1)C(=O)COc1ccc(Cl)c(Cl)c1.O=[N+]([O-])c1cc([N+](=O)[O-])c(O)c([N+](=O)[O-])c1 | inactive: -20.5%
31 | CC(C)(C)C(=O)NC(Sc1ncccn1)C(Cl)(Cl)Cl (stereo unspecified) | inactive: -12.5%
32 | COc1ccccc1CNC(=O)COC(=O)C(O)(c1ccccc1)c1ccccc1 | inactive: -19.1%
33 | Cc1ccc(S(=O)(=O)N(CCCN)CCCc2c(C)nc(N)[nH]c2=O)cc1.O=[N+]([O-])c1cc([N+](=O)[O-])c(O)c([N+](=O)[O-])c1 | inactive: -22.6%
34 | CN(C(=O)Cc1ccc(Cl)c(Cl)c1)[C@@H]1CCCC[C@H]1N1CCCC1 | inactive: -11.7%
35 | CC(C)/C=N\N=C(\N)N[N+](=O)[O-] | inactive: -3.09%
36 | Cc1nc2ccc3ccccc3c2s1.O=[N+]([O-])c1cc([N+](=O)[O-])c(O)c([N+](=O)[O-])c1 | inactive: -29.2%
37 | CC1(CBr)Cn2c(nc3ccccc3c2=O)S1 (stereo unspecified) | inactive: 4.01%
38 | O=C(OC1CN2CCC1CC2)c1ccc(Cl)cc1 (stereo unspecified) | inactive: -3.12%
39 | O=[As](O)(O)c1cccnc1 | inactive: -5.94%
40 | COc1cc(C(=O)NCC2(N3CCOCC3)CCCCC2)cc(Cl)c1OC(C)C | inactive: -16.3%
41 | CS(=O)(=O)c1ccc(Cl)c(NC(=O)COC(=O)C(O)(c2ccccc2)c2ccccc2)c1 | inactive: -31.5%
42 | COc1ccccc1OP(C)(=O)Nc1cccc(Br)c1 (stereo unspecified) | inactive: -0.496%
43 | Cc1cccc(OCC(=O)OC2CN3CCC2CC3)c1 (stereo unspecified) | inactive: 4.89%
44 | O=[As](O)(c1cccc(O)c1)c1cccc(O)c1 | inactive: 1.22%

Row | SMILES | potentiation
45 | Cc1cc(C)cc(OP(C)(=O)Nc2ccc(C)cc2C)c1 (stereo unspecified) | inactive: -9.07%
46 | CCOC(=O)c1ccc(NP(C)(=O)Oc2cc(C)cc(C)c2)cc1 (stereo unspecified) | inactive: -23%
47 | Cc1cc(C)cc(OP(C)(=O)Nc2ccccn2)c1 (stereo unspecified) | inactive: 12.7%
48 | CP(=O)(Nc1cccc(Br)c1)Oc1ccccc1 (stereo unspecified) | inactive: -4.14%
49 | Nc1cccc2c([As](=O)(O)O)cccc12 | inactive: 10.8%
50 | Cc1ccc(NCCc2c([N+](=O)[O-])cc([N+](=O)[O-])cc2[N+](=O)[O-])cc1 | inactive: 27%
51 | Cc1ccc(C)c(NP(C)(=O)Oc2ccccc2)c1 (stereo unspecified) | inactive: -10.9%
52 | CCOP(=O)(Nc1cccc2ccccc12)OCC | inactive: -4.42%
53 | CCOP1(=S)c2c(C)nn(CCC#N)c2N=C(c2ccccc2F)N1C (stereo unspecified) | inactive: -10.4%
54 | O=P(Nc1nccs1)(Oc1ccccc1)Oc1ccccc1 | inactive: -9.71%
55 | O=P(Nc1nccs1)(c1ccccc1)c1nc2ccccc2s1 (stereo unspecified) | inactive: -15.4%
56 | CS(=O)(=O)c1cc([N+](=O)[O-])c2no[n+]([O-])c2c1 | inactive: -2.8%
57 | O=C(O)COc1ccc([As](=O)(O)O)cc1[N+](=O)[O-] | inactive: 2.88%
58 | Nc1ccccc1[As](=O)(O)c1ccccc1 | inactive: 0.288%
59 | NC(=O)Nc1ccc([As](=O)(O)O)cc1 | inactive: -5.7%
60 | N#CCCN(C(=O)COC(=O)C(O)(c1ccccc1)c1ccccc1)c1ccc(F)cc1 | inactive: -21.4%
61 | CN(C(=O)Cc1ccccc1)[C@@H]1CC[C@]2(CCCO2)C[C@H]1N1CCCC1 | inactive: 4.23%
62 | CCOP1(=S)c2c(C)nn(CCC#N)c2N=C(c2ccc(F)cc2)N1C (stereo unspecified) | inactive: -9.38%
63 | O=[N+]([O-])c1ccc2c(c1)nnn2O | inactive: -9.66%
64 | CN(C)C(=O)c1cc([N+](=O)[O-])cc2c1-c1c(cc([N+](=O)[O-])cc1[N+](=O)[O-])C2=O | inactive: 24.8%
65 | CC1=NCCc2c1[nH]c1ccccc21.O=[N+]([O-])c1cc([N+](=O)[O-])c(O)c([N+](=O)[O-])c1 | inactive: -1.37%
66 | CN(C(=O)Cc1ccc(Cl)c(Cl)c1)[C@H]1CC[C@@]2(CCCO2)C[C@@H]1N1CCCC1 | inactive: 0.0959%
